System: Liver
Assay: Antioxidant activity against FeSO4-induced lipid peroxidation in rat liver homogenate assessed as inhibition of malondialdehyde release after 1 hr by thiobarbituric acid assay
Type: functional, tissue-based

In the case of COc1cc([C@@H]2Oc3cc(OC)c(O)c(OC)c3C(=O)[C@@H]2O)ccc1O (racemic), the Activity was “Dose-dependent effect”.

For COc1cc([C@H]2Oc3cc(OC)c(OC)c(OC)c3C(=O)[C@@H]2O)ccc1O (racemic), the Activity was “Dose-dependent effect”.
